{"source": "patent US20110008439A1", "about": "“DULOXETIN COMPOSITION” (priority 2006, published 2011)", "origin": "cited, not measured here", "data": [{"compound": "CNCC[C@H](Oc1cccc2ccccc12)c1cccs1.Cl", "note": "[Duloxetine hydrochloride, (+)-(S)-N-methyl-γ-(1-naphthyloxy)-2-thiophenepropylamine hydrochloride]", "values": [{"measurement": "Solubility in water", "result": "slightly soluble in water"}]}]}
